From patent US20260258333A1, “MULTI-ORGAN "BODY ON A CHIP" APPARATUS UTILIZING A COMMON MEDIA” (Wake Forest University Health Sciences, priority 2016, published 2026) come the findings set out here.

The data set has as its system cardiac organoids. The conditions noted are these: preliminary results, FIG. 22.

As to mercury chloride, the ATP activity entry is reported as “decreases in ATP activity”.
